## Ab-14 heavy chain CDR variants: yeast mating affinities

Data: MIT Lincoln Laboratory AlphaSeq set, Engelhart et al. 2022, doi:10.1038/s41597-022-01779-4, as distributed in FLAb.

Binding partner: SARS-CoV-2 spike HR2 peptide, sequence PDVDLGDISGINAS.

Parent scFv Ab-14: VH joined to VL by the linker GGGGSGGGGSGGGGS. Changes lie in the heavy chain CDRs alone.
VH: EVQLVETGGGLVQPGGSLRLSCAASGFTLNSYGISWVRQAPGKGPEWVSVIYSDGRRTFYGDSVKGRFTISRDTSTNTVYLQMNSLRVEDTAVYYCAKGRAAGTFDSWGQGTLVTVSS
VL: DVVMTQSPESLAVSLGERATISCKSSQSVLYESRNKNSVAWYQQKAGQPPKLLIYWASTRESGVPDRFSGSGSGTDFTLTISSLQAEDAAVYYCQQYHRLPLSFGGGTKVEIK

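Phage display of a naive human antibody library on the peptide gave the parent. The library (AAYL49) carries one to three amino acid substitutions per variant, with no insertions or deletions. Affinity was read by AlphaSeq, a pooled yeast mating assay with surface-displayed partners. Pairs that bind mate more often; barcode pairs of the diploids are counted by sequencing. Read counts were normalised to the haploid input and turned into Kd by a linear fit to BCL2-family pairs of known affinity, for each replicate. The assay was run in three technical replicates.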

Variants are written as CDR1, CDR2 and CDR3 of the heavy chain (limits as in the source). Parent: GFTLNSYGIS, VIYSDGRRTFYGDSVK, GRAAGTFDS.
Values are log10 of the apparent Kd in nM; lower means stronger binding.
The mean shown is taken over the replicates in which the pair was detected.
"n.d." means that the variant was in the library but no mating with the target was seen in that replicate; the authors take this as a sign of poor binding, and no number exists.
Parent in this assay: reference entry 0.65, copy in this library 4.11 (one replicate of three).

{"CDR-H1": "GFTLNSYGIS", "CDR-H2": "VIYSDGRRTFYQDSVK", "CDR-H3": "FRAAGTFDS", "log10 Kd, replicates": "0.65 / 0.97 / 0.83", "mean log10 Kd (nM)": "0.82", "control signals": "2 of 9 (3.96)"}
{"CDR-H1": "TFTLNSYGIS", "CDR-H2": "VTYSDGRRTFYGQSVK", "CDR-H3": "GRAAGTFDS", "log10 Kd, replicates": "n.d. / 3.66 / n.d.", "mean log10 Kd (nM)": "3.66", "control signals": "0 of 9"}
{"CDR-H1": "GFTLNSYGIS", "CDR-H2": "VIYRDGRRTFYGDSVK", "CDR-H3": "GRAWGTFDS", "log10 Kd, replicates": "n.d. / 4.26 / n.d.", "mean log10 Kd (nM)": "4.26", "control signals": "1 of 9 (3.31)"}
{"CDR-H1": "GFTLNSYGIS", "CDR-H2": "VIYSDGRRTFYGDSVR", "CDR-H3": "GPAAGTFDS", "log10 Kd, replicates": "1.33 / 1.43 / 1.35", "mean log10 Kd (nM)": "1.37", "control signals": "7 of 9 (4.77)"}
{"CDR-H1": "GFTLVSYGIS", "CDR-H2": "VIYSDGRRTFYGDSVK", "CDR-H3": "FRAAGTMDS", "log10 Kd, replicates": "n.d. / 3.35 / n.d.", "mean log10 Kd (nM)": "3.35", "control signals": "3 of 9 (3.66)"}
{"CDR-H1": "GFTLNRYGIS", "CDR-H2": "VIYSDGTRTFYGDSVK", "CDR-H3": "GRAAGTFRS", "log10 Kd, replicates": "0.96 / 0.99 / 0.86", "mean log10 Kd (nM)": "0.94", "control signals": "0 of 9"}
{"CDR-H1": "GFSLNSYGIS", "CDR-H2": "VIYSDGRRTFYGDSVK", "CDR-H3": "GRAAGAFSS", "log10 Kd, replicates": "0.44 / 0.80 / 0.66", "mean log10 Kd (nM)": "0.63", "control signals": "2 of 9 (4.47)"}
{"CDR-H1": "GFTLNSYGIS", "CDR-H2": "KIYSDGRRTFYGDSVK", "CDR-H3": "GRAAGTFDC", "log10 Kd, replicates": "n.d. / n.d. / n.d.", "mean log10 Kd (nM)": "n.d.", "control signals": "0 of 9"}
{"CDR-H1": "NETLNSYGIS", "CDR-H2": "VKYSDGRRTFYGDSVK", "CDR-H3": "GRAAGTFDS", "log10 Kd, replicates": "n.d. / n.d. / n.d.", "mean log10 Kd (nM)": "n.d.", "control signals": "0 of 9"}
{"CDR-H1": "GFTLNEYGIS", "CDR-H2": "VIYSDFTRTFYGDSVK", "CDR-H3": "GRAAGTFDS", "log10 Kd, replicates": "n.d. / 5.15 / n.d.", "mean log10 Kd (nM)": "5.15", "control signals": "3 of 9 (3.71)"}
{"CDR-H1": "GFILNSYGID", "CDR-H2": "VIYSDGRRTFYLDSVK", "CDR-H3": "GRAAGTFDS", "log10 Kd, replicates": "n.d. / n.d. / n.d.", "mean log10 Kd (nM)": "n.d.", "control signals": "1 of 9 (4.40)"}
{"CDR-H1": "GFTNNSRGIS", "CDR-H2": "VIYSDGRRTFYGDSVK", "CDR-H3": "SRAAGTFDS", "log10 Kd, replicates": "n.d. / n.d. / n.d.", "mean log10 Kd (nM)": "n.d.", "control signals": "0 of 9"}
{"CDR-H1": "GFTLNSHGIS", "CDR-H2": "VIYSDGDRTFYLDSVK", "CDR-H3": "GRAAGTFDS", "log10 Kd, replicates": "3.97 / 3.03 / 3.63", "mean log10 Kd (nM)": "3.54", "control signals": "7 of 9 (4.39)"}
{"CDR-H1": "GFTLNSYGVS", "CDR-H2": "VIYSDIRRWFYGDSVK", "CDR-H3": "GRAAGTFDS", "log10 Kd, replicates": "n.d. / n.d. / n.d.", "mean log10 Kd (nM)": "n.d.", "control signals": "0 of 9"}
{"CDR-H1": "GFTLNSYGIS", "CDR-H2": "VPKSDGRRTFYGDSVK", "CDR-H3": "GPAAGTFDS", "log10 Kd, replicates": "n.d. / 5.21 / n.d.", "mean log10 Kd (nM)": "5.21", "control signals": "6 of 9 (3.95)"}
{"CDR-H1": "GFTLNSYGIS", "CDR-H2": "VIYSDGRRTFIGDSVK", "CDR-H3": "GNAYGTFDS", "log10 Kd, replicates": "n.d. / n.d. / 3.53", "mean log10 Kd (nM)": "3.53", "control signals": "1 of 9 (4.13)"}
{"CDR-H1": "GFTLNSYGIS", "CDR-H2": "VKYSDGRMTFYGDSKK", "CDR-H3": "GRAAGTFDS", "log10 Kd, replicates": "n.d. / n.d. / n.d.", "mean log10 Kd (nM)": "n.d.", "control signals": "0 of 9"}
{"CDR-H1": "GFTLNSYGIS", "CDR-H2": "VIYSDGRREFYGCSVK", "CDR-H3": "GRAAGTFDY", "log10 Kd, replicates": "n.d. / n.d. / n.d.", "mean log10 Kd (nM)": "n.d.", "control signals": "0 of 9"}
{"CDR-H1": "TFTLNRYGIS", "CDR-H2": "VIYSEGRRTFYGDSVK", "CDR-H3": "GRAAGTFDS", "log10 Kd, replicates": "n.d. / n.d. / n.d.", "mean log10 Kd (nM)": "n.d.", "control signals": "3 of 9 (3.54)"}
{"CDR-H1": "GVTLNSYGIS", "CDR-H2": "VIYSDGRMTFYGDSVK", "CDR-H3": "GRAAQTFDS", "log10 Kd, replicates": "n.d. / 5.33 / n.d.", "mean log10 Kd (nM)": "5.33", "control signals": "4 of 9 (4.20)"}
{"CDR-H1": "DFTINSYSIS", "CDR-H2": "VIYSDGRRTFYGDSVK", "CDR-H3": "GRAAGTFDS", "log10 Kd, replicates": "n.d. / 4.79 / n.d.", "mean log10 Kd (nM)": "4.79", "control signals": "0 of 9"}
{"CDR-H1": "GFWLNSYGSS", "CDR-H2": "LIYSDGRRTFYGDSVK", "CDR-H3": "GRAAGTFDS", "log10 Kd, replicates": "n.d. / n.d. / n.d.", "mean log10 Kd (nM)": "n.d.", "control signals": "1 of 9 (2.26)"}
{"CDR-H1": "GFTLNSDVIS", "CDR-H2": "VIYSDMRRTFYGDSVK", "CDR-H3": "GRAAGTFDS", "log10 Kd, replicates": "n.d. / n.d. / 5.83", "mean log10 Kd (nM)": "5.83", "control signals": "4 of 9 (4.31)"}
{"CDR-H1": "GFTLISYGIS", "CDR-H2": "VIYSDGRRFFYGDSVK", "CDR-H3": "GRAAGTFSS", "log10 Kd, replicates": "n.d. / n.d. / n.d.", "mean log10 Kd (nM)": "n.d.", "control signals": "1 of 9 (3.83)"}
{"CDR-H1": "GFTLNSYGIS", "CDR-H2": "VILSDQRRTFYGDSVK", "CDR-H3": "GRAAGTFDI", "log10 Kd, replicates": "n.d. / n.d. / 5.36", "mean log10 Kd (nM)": "5.36", "control signals": "2 of 9 (4.18)"}
{"CDR-H1": "PFDLNSYGIS", "CDR-H2": "VIYSDGRRTFIGDSVK", "CDR-H3": "GRAAGTFDS", "log10 Kd, replicates": "2.43 / 2.20 / n.d.", "mean log10 Kd (nM)": "2.31", "control signals": "0 of 9"}
{"CDR-H1": "CFTLNSYGIS", "CDR-H2": "VIPKDGRRTFYGDSVK", "CDR-H3": "GRAAGTFDS", "log10 Kd, replicates": "n.d. / n.d. / n.d.", "mean log10 Kd (nM)": "n.d.", "control signals": "0 of 9"}
{"CDR-H1": "GFSLNSYGIS", "CDR-H2": "VIYSDGCRTAYGDSVK", "CDR-H3": "GRAAGTFDS", "log10 Kd, replicates": "0.22 / 0.48 / 0.36", "mean log10 Kd (nM)": "0.35", "control signals": "4 of 9 (5.46)"}

Repeated from above, the 4 best binders with a signal in all replicates:

{"CDR-H1": "GFSLNSYGIS", "CDR-H2": "VIYSDGCRTAYGDSVK", "CDR-H3": "GRAAGTFDS", "log10 Kd, replicates": "0.22 / 0.48 / 0.36", "mean log10 Kd (nM)": "0.35", "control signals": "4 of 9 (5.46)"}
{"CDR-H1": "GFSLNSYGIS", "CDR-H2": "VIYSDGRRTFYGDSVK", "CDR-H3": "GRAAGAFSS", "log10 Kd, replicates": "0.44 / 0.80 / 0.66", "mean log10 Kd (nM)": "0.63", "control signals": "2 of 9 (4.47)"}
{"CDR-H1": "GFTLNSYGIS", "CDR-H2": "VIYSDGRRTFYQDSVK", "CDR-H3": "FRAAGTFDS", "log10 Kd, replicates": "0.65 / 0.97 / 0.83", "mean log10 Kd (nM)": "0.82", "control signals": "2 of 9 (3.96)"}
{"CDR-H1": "GFTLNRYGIS", "CDR-H2": "VIYSDGTRTFYGDSVK", "CDR-H3": "GRAAGTFRS", "log10 Kd, replicates": "0.96 / 0.99 / 0.86", "mean log10 Kd (nM)": "0.94", "control signals": "0 of 9"}

Background: pairings of library AAYL49 with three empty control strains gave a value in 15% of cases (median 4.06, 5th percentile 2.83). Values in that range, when seen in few replicates, are hard to tell from nonspecific mating. For each scFv, signals with the empty controls are counted beside the result, with their mean in brackets.